{"source": "patent US20240261237A1", "about": "“REDUCING SIDE EFFECTS OF NMDA RECEPTOR ANTAGONISTS” (Seelos Therapeutics, Inc., priority 2021, published 2024)", "origin": "cited, not measured here", "target": "NMDA receptor", "details": "cited from earlier work"}
{"compound": "CNC1(c2ccccc2Cl)CCCCC1=O", "note": "(racemic) [racemic ketamine, (R)-2-(2-chlorophenyl)-2-(methylamino)cyclohexanone and (S)-2-(2-chlorophenyl)-2-(methylamino)cyclohexanone]", "values": [{"measurement": "Ki", "result": "~1.06", "unit": "µM"}]}
